US4537772A, “Enhancing absorption of drugs from gastrointestinal tract using acylcarnitines” (Merck & Co., Inc., priority 1984, dated 1985)

Assay: Rectal absorption of target drug from aqueous microenema, percent bioavailability versus intravenous administration
Conditions: rats

Gentamicin sulfate
Percent Bioavailability (mean ± SD) with Palmitoylcarnitine-Cl (target drug (2.5 mg; 0.1 mg for 363,586) with 5 mg palmitoylcarnitine): 42 ± 5.2%
Percent Bioavailability (mean ± SD) Control (target drug alone (2.5 mg; 0.1 mg for 363,586), absence of palmitoylcarnitine): 4 ± 1.2%
